Only a part is listed here, and it is no random draw. Some salts and complexes are drawn in separate pieces, as the source files them; their charges need not balance. Activity calls are given as the source filed them.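 How the source made its calls: active means mean replicate inhibition above about 25%, with every replicate also reaching it (limit read from the data, passing the limit was not always enough); inconclusive means only one of those two criteria met; inactive means neither criterion met.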
The compounds below were run against Protein disulfide-isomerase A6 (Homo sapiens) (UniProt Q15084) (assay: ERp5 (PDIA6) reductase activity blockers – biochemical, turbidity, absorbance 650 nm, single point, primary screen (AID 651711)). Settings: ERp5 insulin aggregation, 90 min, at 9.99 µM, active compounds read high.

Protein sequences, listed by entry. Tags and fused reporters are not part of them.
UniProt Q15084, whole entry: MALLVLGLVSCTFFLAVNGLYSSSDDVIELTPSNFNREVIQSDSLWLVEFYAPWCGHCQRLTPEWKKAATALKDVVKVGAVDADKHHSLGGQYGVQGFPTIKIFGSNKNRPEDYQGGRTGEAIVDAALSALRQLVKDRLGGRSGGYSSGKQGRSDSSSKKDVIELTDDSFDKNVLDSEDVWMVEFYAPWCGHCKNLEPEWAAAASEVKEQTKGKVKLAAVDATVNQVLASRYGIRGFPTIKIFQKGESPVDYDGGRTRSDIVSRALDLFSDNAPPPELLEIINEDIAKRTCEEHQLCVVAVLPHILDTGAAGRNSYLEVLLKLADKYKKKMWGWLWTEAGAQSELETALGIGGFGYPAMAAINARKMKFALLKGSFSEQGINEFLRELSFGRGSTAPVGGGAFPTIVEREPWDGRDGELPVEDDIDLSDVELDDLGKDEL

SMILES	inhibition
CCN(CC)CCCNc1ccccc1[N+](=O)[O-].O=[N+]([O-])c1cc([N+](=O)[O-])c(O)c([N+](=O)[O-])c1	inactive: 3.18%
COc1ccc(OP(C)(=O)Nc2ccc(SC(F)(F)F)cc2)cc1 (stereo unspecified)	inactive: -1.15%
Cc1c([N+](=O)[O-])cc([N+](=O)[O-])c(Br)c1[N+](=O)[O-]	inactive: -3.39%
CCCCCOc1ccc(NP(C)(=O)Oc2ccc(Cl)cc2Cl)cc1 (stereo unspecified)	inactive: 5.31%
O=[N+]([O-])c1cc([N+](=O)[O-])c(OC2CCCCC2O)c([N+](=O)[O-])c1 (stereo unspecified)	inactive: 1.84%
O=[N+]([O-])c1cc([N+](=O)[O-])c(Nc2ccc(Cl)cc2)c([N+](=O)[O-])c1	inactive: -2.93%
CP(=O)(Nc1ccccc1F)Oc1ccccc1 (stereo unspecified)	inactive: 1.67%
CC(C)c1ccc(OP(C)(=O)Nc2ccc(SC(F)(F)F)cc2)cc1 (stereo unspecified)	inactive: 5.31%
O=C(OC1CN2CCC1CC2)c1ccc([N+](=O)[O-])cc1 (stereo unspecified)	inactive: -1.64%
O=C(OCCN1CCN(CCOCc2ccccc2)CC1)C(O)(c1ccccc1)c1ccccc1	inactive: -3.57%
COc1ccc2c(c1O)-c1c(O)c(OC)cc3c1[C@H](C2)[N+](C)(C)CC3.O=[N+]([O-])c1cc([N+](=O)[O-])c([O-])c([N+](=O)[O-])c1[O-]	inactive: 2.61%
CP(=O)(Nc1ccc(SC(F)(F)F)cc1)Oc1ccc(F)cc1 (stereo unspecified)	inactive: 2.19%
CCOP(=O)(CC)OCC	inactive: -10.7%
O=[N+]([O-])c1cc([N+](=O)[O-])c(C(F)(F)F)c([N+](=O)[O-])c1O	inactive: 3.6%
COc1ccc(NP(C)(=O)Oc2ccccc2OC)cc1 (stereo unspecified)	inactive: -0.291%
O=[N+]([O-])c1ccc(OP2(=O)COCCO2)cc1 (stereo unspecified)	inactive: -0.645%
O=[N+]([O-])c1cc([N+](=O)[O-])c(NCC2CCS(=O)(=O)C2)c([N+](=O)[O-])c1 (stereo unspecified)	inactive: 0.848%
Cc1cc(-c2cccc3ccccc23)c(C)cn1.O=[N+]([O-])c1cc([N+](=O)[O-])c(O)c([N+](=O)[O-])c1	inactive: -6.45%
Cc1c(C(c2ccc3c(c2)OCO3)c2c(C)n(C)n(-c3ccccc3)c2=O)c(=O)n(-c2ccccc2)n1C.O=[N+]([O-])c1cc([N+](=O)[O-])c(O)c([N+](=O)[O-])c1	inactive: -6.53%
CCOC(=O)c1ccc(NP(C)(=O)Oc2ccc(Cl)cc2)cc1 (stereo unspecified)	inactive: -0.662%
O=C(OCCCN1CCCC1)C(O)(c1ccccc1)C1CCCCC1 (stereo unspecified)	inactive: -4.88%

SMILES	inhibition
CCc1ccc(OP(C)(=O)Nc2cccnc2)cc1 (stereo unspecified)	inactive: 2.9%
COc1ccccc1OP(C)(=O)Nc1ccccc1Br (stereo unspecified)	inactive: -1.5%
CN(C)C(=O)c1c([N+](=O)[O-])cc([N+](=O)[O-])cc1[N+](=O)[O-]	inactive: 0.457%
COc1ccccc1OP(C)(=O)Nc1ccc(Br)cc1 (stereo unspecified)	inactive: -0.88%
O=[N+]([O-])c1cc([N+](=O)[O-])c(Nc2ccccn2)c([N+](=O)[O-])c1	inactive: 6.27%
Cc1cc(C)cc(OP(C)(=O)Nc2cccc(C(F)(F)F)c2)c1 (stereo unspecified)	inactive: -7.51%
O=C1C(O)=C([N+](=O)[O-])C(=O)C(O)=C1[N+](=O)[O-]	inactive: 0.408%
CP(=O)(OCCOc1ccccc1)OCCOc1ccccc1	inactive: -0.955%
CCCCCCCCCCCCCCCC1C[N+](C)(C)CCOP(C)(=O)O1 (stereo unspecified)	inactive: 3.63%
CP(=O)(Nc1ccc(Cl)cc1Cl)Oc1ccccc1 (stereo unspecified)	inactive: 2.07%
O=[N+]([O-])c1cc([N+](=O)[O-])c(Nc2cccnc2)c([N+](=O)[O-])c1	inactive: -1.53%
O=[N+]([O-])c1ccc2c(c1)C=Nc1ccccc1O2	inactive: 0.0345%
Cc1cccc(C)c1OP(C)(N)=O (stereo unspecified)	inactive: 1.12%
CC(C)(C)c1ccc(OP(C)(=O)Nc2ccc(SC(F)(F)F)cc2)cc1 (stereo unspecified)	inactive: 4.07%
Cc1cc(C)cc(OP(C)(N)=O)c1 (stereo unspecified)	inactive: 4.18%
COc1ccccc1OP(C)(=O)Nc1cc(Cl)ccc1C (stereo unspecified)	inactive: 15.1%
CCN(CC)CCCOC(=O)C(O)(c1ccccc1)c1ccccc1	inactive: -4.4%
COc1ccccc1-c1ccccn1.O=[N+]([O-])c1cc([N+](=O)[O-])c(O)c([N+](=O)[O-])c1	inactive: 2.06%
CP(=O)(Oc1ccccc1)OC(c1ccccc1)C(F)(F)F (stereo unspecified)	inactive: -0.895%
CP(=O)(Nc1ccc(SC(F)(F)F)cc1)Oc1ccc(Cl)cc1 (stereo unspecified)	inactive: -6.84%
CP(=O)(NC(=O)Nc1ccccc1)Oc1ccccc1 (stereo unspecified)	inactive: 5.45%

SMILES	inhibition
CCOC(=O)c1ccc(NP(C)(=O)Oc2ccc(OC)cc2)cc1 (stereo unspecified)	inactive: -5.58%
O=[N+]([O-])c1cc([N+](=O)[O-])c(O)c([N+](=O)[O-])c1.c1ccc(Oc2ccncc2)cc1	inactive: -0.189%
CP(=O)(Nc1ccccn1)Oc1ccc(Cl)cc1 (stereo unspecified)	inactive: 3.44%
CP(=O)(Nc1ccccc1Br)Oc1ccccc1 (stereo unspecified)	inactive: -2.77%
COc1ccccc1OP(C)(=O)Nc1ccccc1 (stereo unspecified)	inactive: 1.74%
CCOC(=O)C(CC)C1=NC(C)(C)Cc2ccccc21.O=[N+]([O-])c1cc([N+](=O)[O-])c(O)c([N+](=O)[O-])c1 (stereo unspecified)	inactive: -5.4%
O=[N+]([O-])c1cc([N+](=O)[O-])c(Nc2nnnn2CCO)c([N+](=O)[O-])c1	inactive: 3.13%
CN1CCCCC1COC(=O)C1(O)c2ccccc2CCc2ccccc21 (stereo unspecified)	inactive: -6.25%
COc1ccc(-c2ccccn2)cc1.O=[N+]([O-])c1cc([N+](=O)[O-])c(O)c([N+](=O)[O-])c1	inactive: -0.234%
CCCOc1ccc(NP(C)(=O)Oc2ccc(Cl)cc2)cc1 (stereo unspecified)	inactive: -0.194%
O=[N+]([O-])c1cc([N+](=O)[O-])c(-n2nnc3ccccc32)c([N+](=O)[O-])c1	inactive: -9.94%
CN(Cc1cccnc1)C(=O)COc1ccc(Cl)c(Cl)c1.O=[N+]([O-])c1cc([N+](=O)[O-])c(O)c([N+](=O)[O-])c1	inactive: -10.2%
O=[N+]([O-])c1cc([N+](=O)[O-])c(-c2cnn(-c3ccccc3)c2)c([N+](=O)[O-])c1	inactive: -0.352%
COc1ccccc1OP(C)(=O)Nc1cccc(Br)c1 (stereo unspecified)	inactive: 7.63%
CCOC(=O)c1ccc(NP(C)(=O)Oc2cc(C)cc(C)c2)cc1 (stereo unspecified)	inactive: 0.175%
Cc1cc(C)cc(OP(C)(=O)Nc2ccc(C)cc2C)c1 (stereo unspecified)	inactive: 2.18%
CP(=O)(Nc1cccc(Br)c1)Oc1ccccc1 (stereo unspecified)	inactive: -3.42%
Cc1cc(C)cc(OP(C)(=O)Nc2ccccn2)c1 (stereo unspecified)	inactive: 4.11%
O=C(O)c1cccc(Nc2c([N+](=O)[O-])cc([N+](=O)[O-])cc2[N+](=O)[O-])c1	inactive: -8.97%
